FN deposit inh – fibronectin deposition inhibition. inhibition, % at 12.6 µM. AID 743247. AH1F fibroblasts, Alexa488-fibronectin deposition fluorescence, overnight. actives 0.086% (n = 350,000);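 active means mean inhibition across replicates of 30% or more, regardless of how many single replicates reach that level; inconclusive means mean under 30% yet at least half of replicates reach 30%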
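material = AH1F fibroblast monolayer depositing Alexa488-labelled fibronectin into matrix | amount = 10000 AH1F cells/well | buffer or medium = DMEM plus 2% serum, read in PBS | incubation = 1 h cell adhesion before compound, then overnight fibronectin incubation | detection = fluorescence at 485 nm excitation, 525 nm emission | evaluation = percent inhibition as loss of matrix-bound fibronectin fluorescence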
Yeast UUG start-1 – modulators of yeast start codon fidelity, primary screen, whole organism, S. cerevisiae, single point, plate reader | AID 602363, 2012 | S. cerevisiae UUG-firefly luciferase reporter, luminescence/redox ratio | activity score, % at 18.7 µM | hit rate 0.13% among 350,000;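 active = replicate mean at a twofold rise or more, about +100% in these data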;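 also: firefly luciferase made from a UUG start codon reports start codon fidelity; reporter light over untreated wells divided by growth signal over untreated wells; some hits fall short of that in this replicate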
PGC1a acetyl inh – PGC1a acetylation modulation, inhibitor mode; U2OS PGC1a acetylation, AlphaScreen anti-acetyl-lysine; with virally co-expressed GCN5 acetyltransferase; inhibition, % at 15.6 µM; actives 0.17% (n = 350,000); AID 651687;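 active means every replicate shows inhibition of at least 40%; inconclusive means mean inhibition at least 40% but some replicate below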
Cneo AK release – Cryptococcus neoformans lysis via adenylate kinase release; C. neoformans lysis, adenylate kinase release luminescence, 4 h; normalised: neutral wells 0, clomiphene wells 100; lysis activity, % at 15 µM; actives 0.2% (n = 360,000); AID 651654;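 active means mean lysis activity across replicates of at least 80%, whatever share of replicates individually reach that level; inactive means mean lysis activity below 80%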
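Material: C. neoformans cells; Schedule: 4 h static compound exposure, 37 °C, read 1 h post-reagent; Measured by: adenylate kinase release luminescence; Read-out: signal increase indicating cell lysis; Controls: Clomiphene as positive lysis control.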
miR-122 sensor – miR-122 inhibition in Huh7 cells; Huh7 miR-122 Renilla luciferase sensor, 48 h; neutral wells = 0, positive control = 100; activation (reporter increase), % at 12.5 µM; actives 0.3% (n = 340,000); AID 602342;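 active means mean replicate activation score at least 90 and every replicate individually at or above 90; inconclusive means only one of the two criteria met; inactive means neither criterion met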;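 further: higher luciferase means less miR-122 activity so hits act as miR-122 inhibitors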
Env fusion inh – blocks HIV Env-driven cell-cell fusion | HeLa-JRFL Env/CEM21 cell fusion, luciferase | inhibition, % at 12.3 µM | actives 1.1% (n = 360,000);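 active means mean replicate inhibition score of at least 50 and every replicate individually at or above 50; inconclusive means only one of the two criteria met; inactive means mean below 50 and not all replicates reaching 50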
Yeast UUG start-2 – yeast start codon fidelity modulation | activation, % at 38 µM | AID 652061 | 540 tested, under 10 active | shares compounds with Yeast UUG start-1 | S. cerevisiae UUG-start firefly luciferase, luminescence, 4 h; 100% means double the DMSO signal;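 active means signal increase whose fitted curve reaches an absolute level of 40 at a concentration under 10 µM; inactive means activity opposite to the expected increase, or the rest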
Each line names hits and unclear results; the compound was inactive in the other large screens (follow-up assays come after a bar, where they were run). In the library only some 1.5% were active in any assay of this set; here they are far more common.

Cc1c(P(=O)(c2ccccc2)c2ccccc2)c2ccccc2n1C	Yeast UUG start-1 173 (no result: PGC1a acetyl inh) | Yeast UUG start-2 inactive
COCCn1c(C)cc(C(=O)CSc2nnc(-c3cccnc3)n2-c2ccccc2F)c1C	none (no result: PGC1a acetyl inh)
Cc1ccccc1-n1c(SCC(=O)c2cc(C)n(C)c2C)nnc1-c1cccnc1	none (no result: FN deposit inh, Yeast UUG start-1, Cneo AK release, Env fusion inh) | Yeast UUG start-2 inactive
C#CCOCCOCCOCCNc1nc(N2CCN(C(=O)Cn3cc(CCO)nn3)CC2)nc(N2CCN(C(=O)Cn3cc(CCO)nn3)CC2)n1	none
COc1ccc(OC)c(C(C(=O)NCc2ccco2)N(C(=O)Cn2nnc3ccccc32)C2CC2)c1 (stereo not given)	none (no result: FN deposit inh, Yeast UUG start-1, Cneo AK release, Env fusion inh)
COc1ccc(OC)c(C(C(=O)NCc2ccco2)N(C(=O)Cn2nnc3ccccc32)C(C)C)c1 (stereo not given)	Yeast UUG start-1 196 (no result: FN deposit inh, Env fusion inh) | Yeast UUG start-2 inactive
O=C(c1cccnc1)N1C[C@@H]2[C@H](c3ccccc31)[C@@H](CO)N2C(=O)C1CCOCC1	Yeast UUG start-1 117 (no result: FN deposit inh, Env fusion inh) | Yeast UUG start-2 inactive
O=C(c1cccnc1)N1C[C@@H]2[C@H](c3ccccc31)[C@H](CO)N2C(=O)C1CC1	Yeast UUG start-1 115 (no result: Env fusion inh) | Yeast UUG start-2 inactive
Cc1ccc(-c2nc3ccc(C)cn3c2Cc2ccsc2)cc1	none
Cc1ccc2nc(C(C)(C)C)c(Cc3ccsc3)n2c1	Yeast UUG start-1 153 | Yeast UUG start-2 inactive
NNC(=O)c1n[nH]c(=O)c2ccccc12	none
O=C(NNc1c(Cl)cc(Cl)cc1Cl)c1n[nH]c(=O)c2ccccc12	Yeast UUG start-1 209 | Yeast UUG start-2 inactive
CCOc1ccccc1Nc1nc2ccccc2[nH]1	Yeast UUG start-1 581 | Yeast UUG start-2 inactive
CN(CC(=O)Nc1cc([N+](=O)[O-])ccc1Cl)Cc1ccc(Br)cc1	Yeast UUG start-1 518 | Yeast UUG start-2 inactive
CCOC(=O)C1CCN(Cc2cnc(Oc3ccc(C(C)(C)C)cc3)s2)CC1	Yeast UUG start-1 127 | Yeast UUG start-2 inactive
CCOC(=O)C1CCN(Cc2cnc(NC(=O)OC)s2)CC1	none (no result: PGC1a acetyl inh)
C/C(=N\NC(=O)CC1N=C(Cc2ccccc2)NNC1=O)c1ccc(C)cc1 (stereo not given)	Yeast UUG start-1 372 (no result: FN deposit inh, PGC1a acetyl inh, Env fusion inh) | Yeast UUG start-2 inactive
COc1ccc(C(=O)OCC(=O)N(C)C2CCS(=O)(=O)C2)cc1S(=O)(=O)N1CCCc2ccccc21 (stereo not given)	none (no result: Yeast UUG start-1, PGC1a acetyl inh, Cneo AK release, miR-122 sensor)
CC(C)n1cc(C(=O)c2ccccc2O)cc(C#N)c1=O	Yeast UUG start-1 230 (no result: FN deposit inh) | Yeast UUG start-2 inactive
CCCC(=O)Nc1ccc2c(c1)C(=O)N(C)C[C@H](OC)[C@H](C)CN[C@H](C)CO2	none (no result: PGC1a acetyl inh)
COC(=O)c1ccc(COC(=O)c2ccc(CO)cc2)o1	Yeast UUG start-1 185 | Yeast UUG start-2 inactive
COC(=O)c1ccc(Cc2ccc(C(=O)OC)o2)o1	none (no result: miR-122 sensor)
Cn1nnnc1SCC(=O)c1cccs1	none
Cc1cc(C)c(-n2nnnc2SCC(=O)c2cccs2)c(C)c1	Yeast UUG start-1 active, miR-122 sensor inconclusive | Yeast UUG start-2 inactive
O=C(c1cc(Cl)cc(Cl)c1)N1CCC2CC1c1cc(-c3ccc4c(c3)OCO4)ccc12 (stereo not given)	Yeast UUG start-1 active | Yeast UUG start-2 inactive
COCCCN1C(=O)[C@@]2(Cc3ccccc31)c1ccccc1C(=O)N(Cc1ccccc1)[C@H]2c1ccc(CO)cc1	Yeast UUG start-1 169 (no result: FN deposit inh, miR-122 sensor) | Yeast UUG start-2 inactive
CN(C)CCCN1C(=O)[C@@]2(Cc3ccccc31)c1ccccc1C(=O)N(Cc1ccccc1C(F)(F)F)[C@H]2c1ccc(CO)cc1	Yeast UUG start-1 173 (no result: FN deposit inh, miR-122 sensor) | Yeast UUG start-2 inactive
CCNC(=O)c1ccccc1NC(=O)c1cccc(S(=O)(=O)N2CCOCC2)c1	none (no result: Yeast UUG start-1, PGC1a acetyl inh, Cneo AK release, miR-122 sensor)
Cc1cc(C)c(S(=O)(=O)N2CCN(S(=O)(=O)N3CCC(C)CC3)CC2)c(C)c1	Yeast UUG start-1 active | Yeast UUG start-2 inactive
Cc1ccc(S(=O)(=O)N(C)C[C@H]2Oc3cc(-c4cccc(F)c4)ccc3S(=O)(=O)N([C@@H](C)CO)C[C@@H]2C)cc1	Yeast UUG start-1 106 (no result: FN deposit inh) | Yeast UUG start-2 inactive

Source: PubChem BioAssay
